Literature values, collected in PMC9824695, “A Novel Multi-Target Mu/Delta Opioid Receptor Agonist, HAGD, Produced Potent Peripheral Antinociception with Limited Side Effects in Mice and Minimal Impact on Human Sperm Motility In Vitro” (Molecules, 2023).

System: opioid receptors
Settings: cited from earlier work

SMILES | Agonist (receptors) | Antagonist (receptors)
CN1CC[C@]23c4c5ccc(O)c4O[C@H]2[C@@H](O)C=C[C@H]3[C@H]1C5 [morphine] | MOR DOR KOR | –
C=CCN1CC[C@]23c4c5ccc(O)c4O[C@H]2C(=O)CC[C@@]3(O)[C@H]1C5 [naloxone] | – | MOR DOR KOR
